According to US8106020B2, “Calcium receptor activator” (Ajinomoto Co., Inc., priority 2005, dated 2012):

Target: T1, human calcium receptor (Homo sapiens, UniProt P41180)
T1 construct: expressed in transfected cells; host or cells: Xenopus laevis oocytes microinjected with cRNA; gene amplified by PCR from human kidney cDNA (Clontech) and cloned in pBR322
T1 sequence (P41180 20-1078): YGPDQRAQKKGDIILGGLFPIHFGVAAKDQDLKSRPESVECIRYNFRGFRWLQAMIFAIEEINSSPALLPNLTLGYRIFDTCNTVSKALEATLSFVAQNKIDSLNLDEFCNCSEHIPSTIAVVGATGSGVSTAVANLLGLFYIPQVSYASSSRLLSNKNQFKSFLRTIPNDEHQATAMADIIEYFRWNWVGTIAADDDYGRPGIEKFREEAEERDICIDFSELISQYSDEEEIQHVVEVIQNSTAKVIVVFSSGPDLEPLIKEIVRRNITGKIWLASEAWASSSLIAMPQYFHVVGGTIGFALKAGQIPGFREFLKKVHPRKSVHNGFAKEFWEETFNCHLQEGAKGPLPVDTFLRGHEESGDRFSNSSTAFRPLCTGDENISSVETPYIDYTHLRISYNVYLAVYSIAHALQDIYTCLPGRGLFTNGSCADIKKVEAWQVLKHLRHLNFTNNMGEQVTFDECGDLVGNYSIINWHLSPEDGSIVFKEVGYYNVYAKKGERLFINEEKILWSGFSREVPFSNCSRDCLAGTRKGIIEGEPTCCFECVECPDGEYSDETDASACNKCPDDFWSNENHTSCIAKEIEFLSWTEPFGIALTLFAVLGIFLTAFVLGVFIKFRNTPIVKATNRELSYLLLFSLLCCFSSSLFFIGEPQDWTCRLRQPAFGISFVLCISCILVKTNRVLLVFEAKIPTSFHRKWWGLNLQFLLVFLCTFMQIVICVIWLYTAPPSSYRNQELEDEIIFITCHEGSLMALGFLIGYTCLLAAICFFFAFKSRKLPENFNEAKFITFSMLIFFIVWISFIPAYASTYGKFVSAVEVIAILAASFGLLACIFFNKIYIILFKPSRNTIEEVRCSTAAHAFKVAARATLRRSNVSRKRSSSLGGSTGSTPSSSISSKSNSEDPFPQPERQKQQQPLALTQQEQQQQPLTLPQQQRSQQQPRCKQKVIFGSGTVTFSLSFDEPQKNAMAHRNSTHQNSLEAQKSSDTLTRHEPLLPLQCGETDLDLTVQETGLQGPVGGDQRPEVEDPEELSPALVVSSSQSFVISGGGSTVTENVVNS
Experiment: Calcium receptor activation activity: Ca ion concentration-dependent Cl ionic current in Xenopus laevis oocyte expression system
Format: cell-based
Settings: FIG. 4
Protocol: To evaluate calcium receptor activation activity, a Ca ion concentration-dependent Cl ionic current measuring method using a Xenopus laevis oocyte expression system was used. If each activator is added to Xenopus laevis oocytes expressing the calcium receptor, intracellular Ca ions increase. Then, the Ca ion concentration-dependent Cl channel opens, and the intracellular current value changes as an ionic current. By measuring the change in this intracellular current value, the presence or absence of calcium receptor activation activity can be determined.
Specifically, the abdomen of Xenopus laevis was opened, and an egg batch was taken out and treated with a 1% collagenase solution at 20° C. for 2 hours to obtain individual oocytes. Into the oocytes, 50 nl of 1 μg/μl receptor cRNA or 50 nl of sterilized water per oocyte was introduced by using a micro glass capillary, and the oocytes were cultured at 18° C. for 2 or 3 days. For the culture, a solution obtained by adding 2 mM pyruvic acid, 10 U/ml of penicillin, and 10 μg/ml of streptomycin to the solution in Example 2 was used. After the culture, a test solution was added to the oocytes containing either the cRNA or sterilized water. Electrophysiological measurement was performed by using an amplifier, Geneclamp500 (Axon), and recording software, AxoScope 9.0 (Axon). The oocytes were voltage-clamped at −70 mV by the double electrode voltage clamp method, and the intracellular current was measured via the Ca ion concentration-dependent Cl ion channel. The maximum value of the intracellular current was considered as the response current value.
Calcium receptor activation activity of L-amino acids was evaluated by using the method described in Example 6. That is, oocytes containing either cRNA of the calcium receptor or sterilized water were prepared, and voltage-clamped at −70 mV by the double electrode voltage clamp method. To the voltage-clamped oocytes, alanine (10 mM), arginine (10 mM), asparagine (10 mM), aspartic acid (10 mM), cysteine (10 mM), glutamine (10 mM), glutamic acid (10 mM), glycine (10 mM), histidine (10 mM), isoleucine (10 mM), leucine (10 mM), lysine (10 mM), methionine (10 mM), phenylalanine (10 mM), proline (10 mM), serine (10 mM), threonine (10 mM), tryptophan (10 mM), tyrosine (10 mM), valine (10 mM), ornithine (10 mM), taurine (10 mM), or hydroxyproline (10 mM) was added, and Ca ion concentration-dependent Cl response current was measured. […] As for the aforementioned amino acids, the activation activity was reported in Proc. Natl. Acad. Sci. USA, 2000 Apr. 25, 97(9):4814-9.
Calcium receptor activation activity of D-cysteine was evaluated by using the method described in Example 6. That is, oocytes containing either cRNA of the calcium receptor or sterilized water were prepared, and voltage-clamped at −70 mV by the double electrode voltage clamp method. To the voltage-clamped oocytes, D-cysteine (10 mM), L-cysteine (10 mM), D-tryptophan (10 mM), or L-tryptophan (10 mM) was added, and Ca ion concentration-dependent Cl response current was measured.
Calcium receptor activation activity of peptides was evaluated by using the method described in Example 6. […]
Calcium receptor activation activity of peptides was evaluated in the same manner as that of Example 10. Each of the peptides shown in Table 2 was added to voltage-clamped oocytes at 1000 μM, 300 μM, 100 μM, 30 μM, 10 μM, 3 μM, 1 μM, 0.3 μM, and 0.1 μM, and Ca ion concentration-dependent Cl response current was measured.

Substance	calcium receptor activation activity (Cl response current) (peptide 500 μM)	calcium receptor activation activity (Cl response current) (peptide 50 μM)
γ-Glu-Met (EM)	definitive calcium receptor activation activity	
γ-Glu-Ala (EA)		definitive calcium receptor activation activity
γ-Glu-Val (EV)		definitive calcium receptor activation activity
γ-Glu-Thr (ET)		definitive calcium receptor activation activity
γ-Glu-Gly (EG)	definitive calcium receptor activation activity	
